Source: patent US20130059362A1, “BIOSENSORS COMPRISING PROTEIN-BINDING DOMAINS AND FLUORESCENT PROTEINS” (SIGMA-ALDRICH CO., LLC, priority 2010, published 2013)

Target: T1, EGFR (Homo sapiens, UniProt P00533)
T1 construct: A549 cells, which endogenously express EGFR; endogenous in cells; host or cells: A549 cells stably transfected with the TagGFP:2x(SH2)Grb2 biosensor (a TurboGFP:2x(SH2)Grb2 biosensor for the heregulin test)
Assay: Inhibition of EGF-induced TagGFP:2×(SH2)Grb2 biosensor relocalization
Assay type: cell-based

**Q.** How did the “Translocation of TagGFP:2×(SH2)Grb2 to the plasma membrane” value (1 μM AG 1478, then 1 μg/mL EGF, 3 min following EGF treatment) turn out when `COc1cc2ncnc(Nc3cccc(Cl)c3)c2cc1OC` [AG 1478, tyrphostin AG 1478] was run?
**A.** blocked

**Q.** What about the “Internalization of TagGFP:2×(SH2)Grb2” value (1 μM AG 1478, then 1 μg/mL EGF, 50 min following EGF treatment) of the same compound?
**A.** also blocked

**Q.** And the “Relocalization of the TagGFP:2×SH2Grb2 biosensor” value (FIG. 7, absence or presence of 1 μg/mL of EGF)?
**A.** inhibits relocalization
